The text below walks through data of PubChem BioAssay AID1009 (NMMLSC, 2008).

Chains of the proteins cited; added tags and fusions are not shown.
UniProt Q07820, whole entry: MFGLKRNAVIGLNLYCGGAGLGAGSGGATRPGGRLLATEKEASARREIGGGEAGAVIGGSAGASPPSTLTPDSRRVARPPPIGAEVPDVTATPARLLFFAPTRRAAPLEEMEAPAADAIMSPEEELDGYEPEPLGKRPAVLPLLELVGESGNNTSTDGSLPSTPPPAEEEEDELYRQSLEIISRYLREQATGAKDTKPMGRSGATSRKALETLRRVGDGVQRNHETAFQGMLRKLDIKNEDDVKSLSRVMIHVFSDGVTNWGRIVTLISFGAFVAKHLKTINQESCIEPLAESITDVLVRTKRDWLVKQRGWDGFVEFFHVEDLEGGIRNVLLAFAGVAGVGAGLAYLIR

SMILES strings stand for the structures. This is a selection; strong and weak results do not stand in their true shares. Some results for these compounds are left out of this collection, so the calls shown say nothing about other tests. Activity calls are given as the source filed them. Rule as the data show it: active = inhibition above about 40%.

The assay has as its target Induced myeloid leukemia cell differentiation protein Mcl-1 (Homo sapiens) (UniProt Q07820). The assay can be described thus: inhibitors of Bim peptide binding to Mcl-1, primary screen, biochemical, bead-based flow cytometry, multiplex (AID 1009).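 Also: 0% = no compound tracer wells and 100% = peptide blocker.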 The note with it: Bim peptide-Mcl-1 binding, at 10 µM, stronger effect = higher value.
As for `O=C(OC1CN2CCC1CC2)C(CO)(c1ccccc1)c1ccccc1` (centres undefined), the inhibition was inactive: -2%. Under `CN(C)c1cccc(C(=O)NCC2(N(C)C)CCCCC2)c1` stands inactive: -5%; under `COc1cccc(C(=O)NCC2(N3CCCCC3)CCCCC2)c1`, inactive: 0%; under `Cc1ccccc1C(=O)NCC1(N2CCCCC2)CCCCC1`, inactive: 0%. Then `CN(C)C1CCCC1OC(=O)C(O)(c1ccccc1)c1ccccc1` (centres undefined), with inactive: -3%; and `C=CCN1CCN(CCOC(=O)C(O)(c2ccccc2)c2ccccc2)CC1`, with inactive: 0%; and `CCN1CCCC(OC(=O)C2(O)c3ccccc3C=Cc3ccccc32)C1` (centres undefined), with inactive: -6%. Then `O=C(NCC1(N2CCCCC2)CCCCC1)c1cc([N+](=O)[O-])ccc1Cl`, with inactive: -4%.

In the case of `CC(C)N1C(=O)CC2(CCN(CCOC(=O)C(O)(c3ccccc3)c3ccccc3)CC2)C1=O`, the inhibition is inactive: 0%.
